Assay results published in PubChem BioAssay AID1963822 (ICCB-Longwood Screening Facility, Harvard Medical School, 2024).
Only a part is listed here, and it is no random draw. Some tests of the compounds listed are not included; inactive here does not mean inactive elsewhere. Calls of active or inactive are those of the source. No rule for the calls is given here.

test: growth inhibitors of anaerobic choline-fed gram-negatives, minimal medium, absorbance (AID 1963822); settings: Gram-negative bacterium anaerobic choline minimal medium, active compounds read low

Row | Compound | z-score
1 | Cc1ccc2oc(C(=O)NCC3(N(C)C)CCCCC3)c(C)c2c1 | inactive: -0.31
2 | Cc1cc(C)c2c(C)c(C(=O)NCC3(N(C)C)CCCCC3)oc2c1 | inactive: -0.5
3 | Cc1c(C(=O)NCC2(N(C)C)CCCCC2)oc2ccccc12 | inactive: -0.37
4 | Cc1cc2oc(C(=O)NCC3(N(C)C)CCCCC3)c(C)c2cc1Cl | inactive: -0.37
5 | Cc1c(C(=O)NCC2(N(C)C)CCCCC2)oc2ccc(F)cc12 | inactive: -2.34
6 | Cc1ccc2c(C)c(C(=O)NCC3(N(C)C)CCCCC3)oc2c1 | inactive: 0.85
7 | Cc1ccc2c(Cl)c(C(=O)NCC3(N(C)C)CCCCC3)sc2c1 | inactive: 0.04
